Values of other authors as cited in patent US20250250647A1, “STABLE CELL CLONES HARBORING REPLICATING SARS-COV-2 RNA” (priority 2021, published 2025).

By UniProt entry, the sequences of proteins in these tests, tags left out. Residues count along the entry.
UniProt P36888, 27-993 limits assumed: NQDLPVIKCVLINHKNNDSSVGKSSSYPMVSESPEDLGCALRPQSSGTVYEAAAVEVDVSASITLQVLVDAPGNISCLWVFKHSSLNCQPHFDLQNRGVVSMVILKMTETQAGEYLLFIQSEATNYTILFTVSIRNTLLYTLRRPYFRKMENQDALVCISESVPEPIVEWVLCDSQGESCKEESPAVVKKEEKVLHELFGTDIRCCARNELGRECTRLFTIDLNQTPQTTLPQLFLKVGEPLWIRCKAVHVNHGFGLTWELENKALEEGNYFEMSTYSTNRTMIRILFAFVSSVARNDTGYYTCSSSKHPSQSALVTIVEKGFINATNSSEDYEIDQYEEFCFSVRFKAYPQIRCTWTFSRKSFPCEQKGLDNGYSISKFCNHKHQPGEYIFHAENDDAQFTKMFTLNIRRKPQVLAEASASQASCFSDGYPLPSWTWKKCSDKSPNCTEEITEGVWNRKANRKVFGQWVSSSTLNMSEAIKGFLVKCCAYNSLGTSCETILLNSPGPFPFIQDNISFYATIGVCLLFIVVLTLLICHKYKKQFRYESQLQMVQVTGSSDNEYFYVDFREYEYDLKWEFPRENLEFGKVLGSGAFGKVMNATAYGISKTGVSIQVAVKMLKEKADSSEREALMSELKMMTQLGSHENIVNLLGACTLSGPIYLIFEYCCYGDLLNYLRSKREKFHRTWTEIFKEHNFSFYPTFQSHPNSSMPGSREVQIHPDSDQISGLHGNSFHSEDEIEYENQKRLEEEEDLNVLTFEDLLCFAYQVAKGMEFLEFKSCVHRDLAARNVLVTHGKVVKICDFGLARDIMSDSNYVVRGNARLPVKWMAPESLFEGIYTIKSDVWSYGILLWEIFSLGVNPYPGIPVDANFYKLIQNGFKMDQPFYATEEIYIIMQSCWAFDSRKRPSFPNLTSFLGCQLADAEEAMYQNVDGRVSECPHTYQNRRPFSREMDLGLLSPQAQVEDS
UniProt Q92793, 1085-1192 limits assumed: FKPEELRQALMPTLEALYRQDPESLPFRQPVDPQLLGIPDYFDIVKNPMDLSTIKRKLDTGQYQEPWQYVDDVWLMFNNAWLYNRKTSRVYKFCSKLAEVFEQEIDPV

Columns and labels:
[1] = biological target: FLT3 (Homo sapiens, UniProt P36888); settings: read-out: IC50 FLT3; cited from earlier work
[2] = biological target: CREBBP bromodomain (Homo sapiens, UniProt Q92793); settings: read-out: IC50 CREBBP bromodomain; tested form: HCl; cited from earlier work

| Compound | IC50 [1] [nM] | IC50 [2] [nM] |
| --- | --- | --- |
| FC(F)(F)c1ccc(CNc2ccc(Cc3c[nH]c4ncc(Cl)cc34)cn2)cc1 | < 1000 |  |
| CCCOc1ccc(CCc2nc3cc(-c4c(C)noc4C)ccc3n2CCN2CCOCC2)cc1 |  | 125 |
